Amino acid sequences for entries named in this document (tags omitted). Residues count along the entry.
UniProt P00740, 227-461: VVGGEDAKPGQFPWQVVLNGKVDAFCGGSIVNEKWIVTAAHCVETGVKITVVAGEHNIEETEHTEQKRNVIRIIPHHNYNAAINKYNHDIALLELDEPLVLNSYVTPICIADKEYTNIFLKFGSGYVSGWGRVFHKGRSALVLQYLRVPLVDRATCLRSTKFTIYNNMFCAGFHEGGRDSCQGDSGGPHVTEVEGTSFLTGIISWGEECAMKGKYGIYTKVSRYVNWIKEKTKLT
UniProt P00740, 47-191 partner: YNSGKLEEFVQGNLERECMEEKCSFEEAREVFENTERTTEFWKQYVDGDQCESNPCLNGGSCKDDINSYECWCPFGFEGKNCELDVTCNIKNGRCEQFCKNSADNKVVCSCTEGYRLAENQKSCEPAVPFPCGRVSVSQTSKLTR

According to patent publication US10351558B2, “Factor IXa inhibitors” (Merck Sharp & Dohme Corp., priority 2015, dated 2019):

The molecules below were run against hFIXa (Homo sapiens (Human), UniProt P00740) (assay: Determination of inhibitory activity against Factor IXa (cleavage of fluorescent peptide CH3SO2-D-CHG-Gly-Arg-AFC)).
Format: biochemical

SMILES	IC50
Cc1ccc2c(c1)nc1n2C[C@@](NC(=O)c2ccc(-n3cnc(C)n3)cc2Cl)(c2cccc(Cl)c2)CC1 [Example 93]	11.4 nM
Cc1ccc2c(c1)nc1n2C[C@@](NC(=O)c2ccc(-n3cnc(C)n3)cc2Cl)(c2ccc(Cl)cc2)CC1 [Example 92]	17.4 nM
Cc1ccc2c(c1)nc1n2C[C@](C)(NC(=O)c2ccc(-n3cnc4cnccc43)cc2Cl)CC1 [Example 56]	13.8 nM
Cc1ccc2c(c1)nc1n2C[C@@](NC(=O)c2ccc(-n3cnc(C4CC4)n3)cc2Cl)(c2ccccc2)CC1 [Example 87]	12.6 nM
Cc1ccc2c(c1)c(C(=O)O)c1n2C[C@@](NC(=O)c2ccc(-n3cnnc3)cn2)(c2ccccc2)CC1 [Example 130]	2.53 nM
Cc1ccc2c(c1)cc1n2C[C@@](NC(=O)c2ccc(-n3cnnc3)cc2Cl)(c2ccccc2)CC1 [Example 125]	34.8 nM
Cc1ccc2c(c1)c(C(=O)O)c1n2C[C@@](NC(=O)c2ccc(-n3cnn(C)c3=O)cc2Cl)(c2cccc(F)c2)CC1 [Example 188]	0.509 nM
Cc1ccc2c(c1)c(C=O)c1n2C[C@@](NC(=O)c2c(Cl)cc(-n3cnnc3)cc2Cl)(c2ccccc2)CC1 [Example 153]	1.61 nM
Cc1ccc2c(c1)nc1n2C[C@](C)(NC(=O)c2ccc(-n3cnc4ccc(C(=O)O)cc43)cc2Cl)CC1 [Example 77]	15.9 nM
COC(=O)c1c2n(c3ccc(C)cc13)C[C@@](NC(=O)c1ccc(-n3cnnc3)cc1Cl)(c1cccc(F)c1)CC2 [Example 170]	4.58 nM
Cc1ccc2c(c1)c(C(N)=O)c1n2C[C@@](NC(=O)c2ccc(-c3ccc(=O)n(C)c3)cc2Cl)(c2ccccc2)CC1 [Example 180]	3.16 nM
Cc1ccc2c3c(nn2c1)CCC(C)(NC(=O)c1ccc(-n2cnc4ncccc42)cc1Cl)C3 (stereo not shown) [Example 4]	13.7 nM
Cc1ccc2c(c1)c(C=O)c1n2C[C@@](NC(=O)c2ccc(-n3cnc(C)n3)cc2Cl)(c2ccccc2)CC1 [Example 136]	5.89 nM
Cc1ccc2c(c1)nc1n2C[C@@](NC(=O)c2c(C)cc(-n3cnc(C)n3)cc2Cl)(c2ccccc2)CC1 [Example 74]	10.4 nM
CNC(=O)c1ccc2c(c1)ncn2-c1ccc(C(=O)N[C@]2(C)CCc3nc4cc(C)ccc4n3C2)c(Cl)c1 [Example 91]	11.5 nM
Cc1cc2c3c(nn2cc1C)CCC(C)(NC(=O)c1ccc(-n2cnc4ccc(Cl)cc42)cc1Cl)C3 (stereo not shown) [Example 18]	16.3 nM
Cc1ccc2c(c1)nc1n2C[C@](C)(NC(=O)c2ccc(-n3cnc4cc(C(=O)O)ccc43)cc2Cl)CC1 [Example 78]	10.2 nM
Cc1ccc2c(c1)nc1n2C[C@@](NC(=O)c2ccc(-n3cnc(C)c3)cc2Cl)(c2ccccc2)CC1 [Example 62]	19.3 nM
Cc1ccc2c(c1)nc1n2C[C@@](NC(=O)c2ccc(-n3cnnc3)cc2Cl)(c2cccnc2)CC1 [Example 59]	12.5 nM
COC(=O)c1ccc2ncn(-c3ccc(C(=O)N[C@]4(C)CCc5nn6c(C)ccc(O)c6c5C4)c(Cl)c3)c2c1 [Example 36]	11.1 nM
Cc1ccc2c3c([nH]c2c1)CCC(NC(=O)c1ccc(-n2cnnc2)cc1Cl)(c1ccccc1)C3 (stereo not shown) [Example 108]	17.9 nM

Further molecules by falling IC50, results first:

IC50	SMILES
9.97 nM	Cc1ccc2c(c1)nc1n2C[C@@](NC(=O)c2ccc(-n3cnc(C)n3)cc2Cl)(c2ccsc2)CC1 [Example 70]
9.39 nM	Cc1ccc2c(c1)nc1n2C[C@](C)(NC(=O)c2ccc(-n3cnc4ccc(C(N)=O)cc43)cc2Cl)CC1 [Example 76]
9.13 nM	CNC(=O)c1ccc2ncn(-c3ccc(C(=O)NC4(C)CCc5nn6cc(C)ccc6c5C4)c(Cl)c3)c2c1 (stereo not shown) [Example 19]
8.42 nM	Cc1ccc2c(c1)c(C(F)(F)F)c1n2C[C@@](NC(=O)c2ccc(-n3cnnc3)cc2Cl)(c2ccccc2)CC1 [Example 155, (S)-2-chloro-N-(2-methyl-7-phenyl-10-(trifluoromethyl)-6,7,8,9-tetrahydropyrido[12]indol-7-yl)-4-(4H-1,2,4-triazol-4-yl)benzamide]
8.07 nM	Cc1ccc2c3c(nn2c1)CCC(NC(=O)c1ccc(-n2cnc(C)n2)cc1Cl)(c1ccc(F)cc1)C3 (stereo not shown) [Example 17]
7.21 nM	Cc1ccc2c(c1)nc1n2CC(NC(=O)c2ccc(-n3cnnc3)cc2Cl)(c2cc(F)cc(F)c2)CC1 (stereo not shown) [Example 86]
6.77 nM	COc1ncc(-c2c3n(c4ccc(C)cc24)C[C@@](NC(=O)c2ccc(-n4cnnc4)cc2Cl)(c2ccccc2)CC3)cc1C#N [Example 211]
6.62 nM	Cc1ccc2c3c(n(CCC(=O)O)c2c1)CC[C@](NC(=O)c1ccc(-n2cnc(C)n2)cc1Cl)(c1cccc(F)c1)C3 [Example 120, (R)-3-(3-(2-chloro-4-(3-methyl-1H-1,2,4-triazol-1-yl)benzamido)-3-(3-fluorophenyl)-7-methyl-3,4-dihydro-1H-carbazol-9(2H)-yl)propanoic acid]
6.32 nM	Cc1ccc2c(c1)c(C)c1n2C[C@@](NC(=O)c2ccc(-n3cnnc3)cc2Cl)(c2ccccc2)CC1 [Example 131, (S)-2-chloro-N-(2,10-dimethyl-7-phenyl-6,7,8,9-tetrahydropyrido[1,2-a]indol-7-yl)-4-(4H-1,2,4-triazol-4-yl)benzamide]
5.72 nM	Cc1ccc2c(c1)c([C@@H](O)C(F)(F)F)c1n2C[C@@](NC(=O)c2ccc(-n3cnnc3)cc2Cl)(c2ccccc2)CC1 [Example 193, 2-chloro-N-(2-methyl-7-phenyl-10-((R)-2,2,2-trifluoro-1-hydroxyethyl)-6,7,8,9-tetrahydropyrido[1,2-a]indol-7-yl)-4-(4H-1,2,4-triazol-4-yl)benzamide]
5.65 nM	Cc1ccc2c(c1)nc1n2C[C@@](NC(=O)c2ccc(-n3cncn3)cc2Cl)(c2ccsc2)CC1 [Example 60]
4.84 nM	Cc1ccc2c3c(nn2c1)CCC(NC(=O)c1ccc(-n2cnc(C)n2)cc1Cl)(c1cccc(C(F)(F)F)c1)C3 (stereo not shown) [Example 46]
4.71 nM	Cc1ccc2c(c1)c(CC(=O)O)c1n2C[C@@](NC(=O)c2ccc(-n3cnc(C)n3)cc2Cl)(c2ccccc2)CC1 [Example 166]
4.68 nM	COC(=O)Cc1c2n(c3ccc(C)cc13)C[C@@](NC(=O)c1ccc(-n3cnc(C)n3)cc1Cl)(c1ccccc1)CC2 [Example 184]
3.83 nM	Cc1ccc2c(c1)nc1n2C[C@@](NC(=O)c2c(Cl)cc(-n3cnc(C)n3)cc2Cl)(c2ccccc2)CC1 [Example 94]
3.61 nM	Cc1ccc2c(c1)nc1n2C[C@@](NC(=O)c2ccc(-n3cnn(C)c3=O)cc2Cl)(c2ccccc2)CC1(F)F [Example 102]
2.75 nM	Cc1ccc2c(c1)c(-c1cncc(CO)c1)c1n2C[C@@](NC(=O)c2ccc(-n3cnnc3)cc2Cl)(c2ccccc2)CC1 [Example 199]
2.63 nM	COc1ccc(-c2c3n(c4ccc(C)cc24)C[C@@](NC(=O)c2ccc(-n4cnnc4)cc2Cl)(c2ccccc2)CC3)cn1 [Example 200]
2.44 nM	Cc1ccc(O)c2c3c(nn12)CC[C@@](C)(NC(=O)c1ccc(-n2cnc4cc(C(N)=O)ccc42)cc1Cl)C3 [Example 23]
2.38 nM	Cc1ccc2c(c1)c(/C=N/O)c1n2C[C@@](NC(=O)c2ccc(-n3cnnc3)cc2Cl)(c2ccccc2)CC1 [Example 137]
1.87 nM	COC(=O)Cc1c2n(c3ccc(C)cc13)C[C@@](NC(=O)c1c(Cl)cc(-n3cnnc3)cc1Cl)(c1ccccc1)CC2 [Example 197]
1.71 nM	COc1ncc(-c2c3n(c4ccc(C)cc24)C[C@@](NC(=O)c2ccc(-n4cnnc4)cc2Cl)(c2ccccc2)CC3)cn1 [Example 203]
